The values that follow are results of earlier work, collected in patent US20060134087A1, “ITI-D1 Kunitz domain mutants as hNE inhibitors” (Dyax Corp., priority 1988, published 2006).

Amino acid sequences for entries named in this document (tags omitted). Residues count along the entry.
UniProt P00772, 27-266: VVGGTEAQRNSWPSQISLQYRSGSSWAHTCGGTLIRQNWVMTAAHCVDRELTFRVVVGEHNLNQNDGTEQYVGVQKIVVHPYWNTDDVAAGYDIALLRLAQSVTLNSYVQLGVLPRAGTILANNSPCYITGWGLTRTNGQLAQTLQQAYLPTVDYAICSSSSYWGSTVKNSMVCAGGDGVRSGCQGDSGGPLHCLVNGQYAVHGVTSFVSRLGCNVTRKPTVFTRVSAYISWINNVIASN

Series [1] deals with T1, Elastase (porcine pancreas) (Sus scrofa, UniProt P00772).
T1 construct: host or cells: porcine pancreas
To be noted: BPTI P1 derivatives; read-out: Dissociation constant (symbol); cited from earlier work.

Series [2] concerns the target T2, Elastase (human leukocytes) (Homo sapiens, UniProt P08246).
T2 construct: host or cells: human leukocytes
T2 sequence (P08246 30-267): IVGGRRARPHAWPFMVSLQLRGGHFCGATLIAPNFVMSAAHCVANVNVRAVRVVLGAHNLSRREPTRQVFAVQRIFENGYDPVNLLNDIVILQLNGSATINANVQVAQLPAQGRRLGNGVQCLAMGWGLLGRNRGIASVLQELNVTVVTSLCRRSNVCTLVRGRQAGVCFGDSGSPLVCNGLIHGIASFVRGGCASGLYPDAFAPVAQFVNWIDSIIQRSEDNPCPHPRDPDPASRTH
To be noted: BPTI P1 derivatives; read-out: Dissociation constant; cited from earlier work.

Series [3] concerns the target T3, Trypsin (bovine pancreas) (Bos taurus, UniProt P00760).
T3 construct: host or cells: bovine pancreas
T3 sequence (P00760 24-246): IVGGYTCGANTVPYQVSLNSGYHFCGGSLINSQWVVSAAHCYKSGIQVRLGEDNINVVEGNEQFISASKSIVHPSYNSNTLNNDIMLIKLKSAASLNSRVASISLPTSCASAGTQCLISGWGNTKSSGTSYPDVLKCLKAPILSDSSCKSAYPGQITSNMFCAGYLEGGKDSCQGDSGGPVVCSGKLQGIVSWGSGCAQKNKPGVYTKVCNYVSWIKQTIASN
To be noted: BPTI P1 derivatives; read-out: Dissociation constant (symbol); cited from earlier work.

Series [4] concerns the target T4, Chymotrypsin (bovine pancreas) (Bos taurus, UniProt P00766).
T4 construct: host or cells: bovine pancreas
To be noted: BPTI P1 derivatives; read-out: Dissociation constant (symbol); cited from earlier work.

For the substance glycine, the Kd in series [1] is not below 3.5 µM; in series [2] it was 0.007 µM; in series [3], more than 3.5 µM; in series [4] it was more than 3.5 µM.
